Only a part is listed here, and it is no random draw. Some salts and complexes are drawn in separate pieces, as the source files them; their charges need not balance. The source made the active and inactive calls. No stated cut-off is given here; in the data, active means maximum fold increase above about 1.5; inconclusive means no clear call, values can overlap the other calls; inactive means below that; tested in PC3 cells.
Assay: compounds boosting herpes simplex virus growth – fold increase, host cell viability (AID 1956)
Conditions: HSV replication augmentation in cells; at 3.125 µM

Q: Which maximum fold increase does the source give for `O=C(OCCCN1CCCC1)C(O)(c1ccccc1)C1CCCCC1` (configuration not stated) here?
A: inactive

Q: For `COc1ccccc1OP(C)(=O)Nc1c(C)n(C)n(-c2ccccc2)c1=O` (configuration not stated), which maximum fold increase is on record?
A: inactive

Q: For `CC(=O)N1C2C3N(C(C)=O)C1C1N(C(C)=O)C(C(N1C(C)=O)N3C(C)=O)N2C(C)=O`, which maximum fold increase is on record?
A: inactive

Q: Which maximum fold increase does the source give for `O=[N+]([O-])c1cccc2n[nH]nc12` here?
A: inactive

Q: With `O=[N+]([O-])c1cc([N+](=O)[O-])c(CCNc2ccccc2)c([N+](=O)[O-])c1` as the compound, how does the maximum fold increase read?
A: inactive

Q: Which maximum fold increase does the source give for `CCc1nc2c(n1)c1c(non1O)c1c2no[n+]1[O-]` here?
A: inactive

Q: For `CCc1ccc(OP(C)(=O)Nc2cccnc2)cc1` (configuration not stated), which maximum fold increase is on record?
A: inactive

Q: For `CP(=O)(Oc1ccccc1)N1CCOC1=O` (configuration not stated), which maximum fold increase is on record?
A: inactive

Q: With `Cc1ccc(NP(=O)(Oc2ccccc2)Oc2ccccc2)nc1` as the compound, how does the maximum fold increase read?
A: inactive

Q: For `O=[N+]([O-])c1cc([N+](=O)[O-])c(Nc2ccccn2)c([N+](=O)[O-])c1`, which maximum fold increase is on record?
A: inactive

Q: Which maximum fold increase does the source give for `CC(C)CC(=O)NC(Sc1ccc(Cl)cc1)C(Cl)(Cl)Cl` (configuration not stated) here?
A: inactive

Q: For `Nc1cc(N)c2nonc2c1[N+](=O)[O-]`, which maximum fold increase is on record?
A: inactive

Q: With `Cc1c(NP(C)(=O)Oc2ccc(C(C)C)cc2)c(=O)n(-c2ccccc2)n1C` (configuration not stated) as the compound, how does the maximum fold increase read?
A: inactive

Q: Which maximum fold increase does the source give for `Cc1c2non([O-])c-2c(C)[n+](=O)[n+]1[O-]` here?
A: inactive

Q: For `O=C(NC(Sc1ccncn1)C(Cl)(Cl)Cl)c1ccccc1` (configuration not stated), which maximum fold increase is on record?
A: inactive

Q: For `Oc1ccccc1CNc1ccccn1`, which maximum fold increase is on record?
A: inactive

Q: With `COc1ccccc1OP(C)(=O)Nc1ccc(C)cc1C` (configuration not stated) as the compound, how does the maximum fold increase read?
A: inactive

Q: Which maximum fold increase does the source give for `CP(=O)(Nc1ccccn1)Oc1ccccc1` (configuration not stated) here?
A: inactive

Q: For `CCc1ccc(OP(C)(=O)O)cc1`, which maximum fold increase is on record?
A: inactive

Q: For `NC(=O)c1cc([N+](=O)[O-])cc([N+](=O)[O-])c1N`, which maximum fold increase is on record?
A: inactive

Q: Which maximum fold increase does the source give for `Cc1ccc(N/C(=N/P(=O)(N2CCOCC2)N2CCOCC2)N2CCOCC2)cc1` here?
A: inactive

Q: For `COc1ccccc1OP(C)(=O)Nc1ccc(Br)cc1` (configuration not stated), which maximum fold increase is on record?
A: inactive

Q: With `Cc1ccc(OP(=O)(Nc2nccs2)Oc2ccc(C)cc2)cc1` as the compound, how does the maximum fold increase read?
A: inactive

Q: With `COc1ccc(OP(C)(=O)Nc2ccccn2)cc1` (configuration not stated) as the compound, how does the maximum fold increase read?
A: inactive

Q: With `COc1ccccc1OP(=O)(Nc1ccc(C)cn1)Oc1ccccc1OC` as the compound, how does the maximum fold increase read?
A: inactive

Q: For `CN(C)CCOC(=O)C(O)(c1ccccc1)C1CCCC1` (configuration not stated), which maximum fold increase is on record?
A: inactive

Q: For `Clc1ccc(Cl)c(NC2=NCC(CBr)S2)c1` (configuration not stated), which maximum fold increase is on record?
A: inactive

Q: For `CN1CCCC(OC(=O)C(c2ccccc2)c2ccccc2)C1` (configuration not stated), which maximum fold increase is on record?
A: inactive

Q: Which maximum fold increase does the source give for `Cc1nc2ccc3ccccc3c2o1.O=[N+]([O-])c1cc([N+](=O)[O-])c(O)c([N+](=O)[O-])c1` here?
A: inactive

Q: For `CCN(N=Nc1nonc1N)c1nonc1N`, which maximum fold increase is on record?
A: inactive

Q: Which maximum fold increase does the source give for `CP(=O)(OCCOc1ccccc1)OCCOc1ccccc1` here?
A: inactive

Q: For `CP(=O)(Nc1ccc(Cl)cc1Cl)Oc1ccccc1` (configuration not stated), which maximum fold increase is on record?
A: inactive

Q: Which maximum fold increase does the source give for `Nc1cccc2ccc([As](=O)(O)O)cc12` here?
A: inactive

Q: Which maximum fold increase does the source give for `O=C(O)c1ccccc1[As](=O)(O)O` here?
A: inactive

Q: For `CC(=O)Nc1ccc([As](=O)(O)O)cc1`, which maximum fold increase is on record?
A: inactive

Q: Which maximum fold increase does the source give for `Cc1cc(C)cc(OP(C)(=O)Nc2cccc(C(F)(F)F)c2)c1` (configuration not stated) here?
A: inactive

Q: For `O=P(Nc1nc2ccc(Cl)cc2s1)(c1ccccc1)c1ccccc1`, which maximum fold increase is on record?
A: inactive

Q: Which maximum fold increase does the source give for `CN(C(=O)Cc1ccc(Cl)c(Cl)c1)[C@H]1CCCC[C@@H]1N1CCCC1` here?
A: inactive

Q: With `Cc1ccc(NP(=O)(Oc2ccccc2F)Oc2ccccc2F)nc1` as the compound, how does the maximum fold increase read?
A: inactive

Q: Which maximum fold increase does the source give for `COc1ccccc1OP(C)(=O)Nc1ccc(C)c(C)c1` (configuration not stated) here?
A: inactive

Q: With `CCOP(=O)(Nc1ccccc1)OCC` as the compound, how does the maximum fold increase read?
A: inactive

Q: Which maximum fold increase does the source give for `Cc1cc(SC(NC(=O)c2ccc(F)cc2)C(Cl)(Cl)Cl)ncn1` (configuration not stated) here?
A: inactive

Q: Which maximum fold increase does the source give for `COc1ccc(OP(C)(=O)Nc2ccccc2Br)cc1` (configuration not stated) here?
A: inactive

Q: For `CC(=O)NC(SC(=S)N(CC(C)C)CC(C)C)C(Cl)(Cl)Cl` (configuration not stated), which maximum fold increase is on record?
A: inactive

Q: For `Cc1ccc(OP(=O)(Nc2ccccn2)Oc2ccc(C)cc2)cc1`, which maximum fold increase is on record?
A: inactive

Q: With `COC(=O)c1cc2c(s1)N=C(c1ccccc1)N(C)P2(=O)N1CCOCC1` (configuration not stated) as the compound, how does the maximum fold increase read?
A: inactive

Q: For `CCC(=O)N1C2C3N(C(=O)CC)C1C1N(C(=O)CC)C(C(N1C(=O)CC)N3C(=O)CC)N2C(=O)CC`, which maximum fold increase is on record?
A: inactive

Q: For `CCN(CC)CCCOC(=O)C(O)(c1ccccc1)C1CCCCC1` (configuration not stated), which maximum fold increase is on record?
A: inactive

Q: For `CP(=O)(Nc1ccccc1)Oc1ccc(F)cc1` (configuration not stated), which maximum fold increase is on record?
A: inactive

Q: With `CN(C)C(=O)Oc1noc2ccccc12` as the compound, how does the maximum fold increase read?
A: inactive

Q: Which maximum fold increase does the source give for `O=c1c2cc([N+](=O)[O-])ccc2[nH]c2c([N+](=O)[O-])cc([N+](=O)[O-])cc12` here?
A: inactive

Q: For `CCCCCOc1ccc(NP(C)(=O)Oc2ccc(Cl)cc2Cl)cc1` (configuration not stated), which maximum fold increase is on record?
A: inactive

Q: For `Cc1ccccc1OP(=O)(Nc1ccccn1)Oc1ccccc1C`, which maximum fold increase is on record?
A: inactive

Q: With `O=C(NC1CCS(=O)(=O)C1)NP(=S)(Oc1ccccc1)Oc1ccccc1` (configuration not stated) as the compound, how does the maximum fold increase read?
A: inactive

Q: Which maximum fold increase does the source give for `CCNC(=S)/N=C(\N)N[N+](=O)[O-]` here?
A: inactive

Q: For `Cc1ccc(NP(=O)(Oc2cccc(C)c2)Oc2cccc(C)c2)nc1`, which maximum fold increase is on record?
A: inactive

Q: Which maximum fold increase does the source give for `CCOC(=O)NC(Sc1ccccc1)C(Cl)(Cl)Cl` (configuration not stated) here?
A: inactive

Q: For `c1ccc(-c2nn[nH]n2)c(-c2nn[nH]n2)c1`, which maximum fold increase is on record?
A: inactive

Q: For `CCOC(=O)c1ccc(NP(C)(=O)Oc2ccc(F)cc2)cc1` (configuration not stated), which maximum fold increase is on record?
A: inactive

Q: For `COc1ccc(OP(C)(=O)Nc2ccc(SC(F)(F)F)cc2)cc1` (configuration not stated), which maximum fold increase is on record?
A: inactive

Q: For `O=C(OC1CN2CCC1CC2)c1ccc([N+](=O)[O-])cc1` (configuration not stated), which maximum fold increase is on record?
A: inactive

Q: With `C[C@@H]1C=CCP(=O)(Oc2ccccc2)O1` (some centres not stated) as the compound, how does the maximum fold increase read?
A: inactive

Q: For `C[C@H]1OP(=O)(Oc2ccccc2)C[C@@H]2O[C@@H]21` (some centres not stated), which maximum fold increase is on record?
A: inactive

Q: With `CC(=O)Nc1ccc(Oc2c([N+](=O)[O-])cc([N+](=O)[O-])cc2[N+](=O)[O-])cc1` as the compound, how does the maximum fold increase read?
A: inactive

Q: Which maximum fold increase does the source give for `COc1ccc2c(c1O)-c1c(O)c(OC)cc3c1[C@H](C2)[N+](C)(C)CC3.O=[N+]([O-])c1cc([N+](=O)[O-])c([O-])c([N+](=O)[O-])c1[O-]` here?
A: inactive

Q: Which maximum fold increase does the source give for `CC(=O)Nc1ccc([As](=O)(O)O)c(O)c1` here?
A: inactive

Q: With `CCOc1ccc(C2=NCC(CBr)S2)cc1` (configuration not stated) as the compound, how does the maximum fold increase read?
A: inactive

Q: With `O=P1(Nc2nc3ccc(Cl)cc3s2)COc2ccccc2O1` (configuration not stated) as the compound, how does the maximum fold increase read?
A: inactive

Q: For `CP(=O)(Nc1ccccc1F)Oc1ccccc1` (configuration not stated), which maximum fold increase is on record?
A: inactive

Q: With `CC(C)c1ccc(OP(C)(=O)Nc2ccc(SC(F)(F)F)cc2)cc1` (configuration not stated) as the compound, how does the maximum fold increase read?
A: inactive

Q: Which maximum fold increase does the source give for `CC(C)(C)C(=O)NC(Sc1ccccc1)C(Cl)(Cl)Cl` (configuration not stated) here?
A: inactive

Q: With `CP(=O)(Nc1ccc2c(c1)OCCO2)Oc1ccccc1` (configuration not stated) as the compound, how does the maximum fold increase read?
A: inactive

Q: Which maximum fold increase does the source give for `Cc1ccccc1NP(C)(=O)Nc1ccccc1C` here?
A: inactive

Q: For `CP(=O)(Nc1ccc(SC(F)(F)F)cc1)Oc1ccc(F)cc1` (configuration not stated), which maximum fold increase is on record?
A: inactive

Q: Which maximum fold increase does the source give for `O=P(Nc1nccs1)(c1ccccc1)c1ccccc1` here?
A: inactive

Q: For `CC(C)C(=O)NC(Sc1ccccc1)C(Cl)(Cl)Cl` (configuration not stated), which maximum fold increase is on record?
A: inactive

Q: With `CCOP(C)(=S)SCC(=O)NC(C)(CC)C(=O)O` (configuration not stated) as the compound, how does the maximum fold increase read?
A: inactive

Q: For `c1nnnn1CCn1cnnn1`, which maximum fold increase is on record?
A: inactive

Q: For `CC(=O)NC(SC(=S)N(C)C)C(Cl)(Cl)Cl` (configuration not stated), which maximum fold increase is on record?
A: inactive

Q: For `O=[N+]([O-])c1ccc(OP2(=O)COCCO2)cc1` (configuration not stated), which maximum fold increase is on record?
A: inactive

Q: Which maximum fold increase does the source give for `O=[N+]([O-])c1ncn(CCn2cnc([N+](=O)[O-])n2)n1` here?
A: inactive

Q: With `Cc1cc(-c2cccc3ccccc23)c(C)cn1.O=[N+]([O-])c1cc([N+](=O)[O-])c(O)c([N+](=O)[O-])c1` as the compound, how does the maximum fold increase read?
A: inactive

Q: With `O=[N+]([O-])c1cc([N+](=O)[O-])c(NCC2CCS(=O)(=O)C2)c([N+](=O)[O-])c1` (configuration not stated) as the compound, how does the maximum fold increase read?
A: inactive

Q: Which maximum fold increase does the source give for `O=[As](O)(c1ccccc1)c1ccc(O)cc1` here?
A: inactive

Q: With `Nc1ccc([As](=O)(O)c2ccc([N+](=O)[O-])cc2)cc1` as the compound, how does the maximum fold increase read?
A: inactive

Q: Which maximum fold increase does the source give for `O=C(OC1CN2CCC1CC2)c1cccc(Cl)c1` (configuration not stated) here?
A: inactive

Q: Which maximum fold increase does the source give for `COc1ccc(OP(C)(=O)Nc2cccc(Br)c2)cc1` (configuration not stated) here?
A: inactive

Q: Which maximum fold increase does the source give for `O=P(Nc1ccccn1)(c1ccc(Br)cc1)c1ccc(Br)cc1` here?
A: inactive

Q: Which maximum fold increase does the source give for `C[C@H]1OP(=O)(Oc2ccccc2)[C@H](O)[C@H](O)[C@H]1N=[N+]=[N-]` (some centres not stated) here?
A: inactive

Q: With `O=P(Nc1nc2ccccc2s1)(c1ccccc1)c1ccccc1` as the compound, how does the maximum fold increase read?
A: inactive

Q: Which maximum fold increase does the source give for `CN(C)CCOC(=O)C(O)(c1ccccc1)C1CCCCC1` (configuration not stated) here?
A: inactive

Q: With `COc1ccc(NP(C)(=O)Oc2ccccc2OC)cc1` (configuration not stated) as the compound, how does the maximum fold increase read?
A: inactive

Source: PubChem BioAssay AID1956 (SRMLSC, 2009)
